The values below are quoted from earlier work in article PMC11222241.

Amino acid sequences for entries named in this document (tags omitted). Residues count along the entry.
UniProt P05067, 672-711: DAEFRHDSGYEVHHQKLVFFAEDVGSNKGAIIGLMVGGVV
UniProt P02649, 19-317: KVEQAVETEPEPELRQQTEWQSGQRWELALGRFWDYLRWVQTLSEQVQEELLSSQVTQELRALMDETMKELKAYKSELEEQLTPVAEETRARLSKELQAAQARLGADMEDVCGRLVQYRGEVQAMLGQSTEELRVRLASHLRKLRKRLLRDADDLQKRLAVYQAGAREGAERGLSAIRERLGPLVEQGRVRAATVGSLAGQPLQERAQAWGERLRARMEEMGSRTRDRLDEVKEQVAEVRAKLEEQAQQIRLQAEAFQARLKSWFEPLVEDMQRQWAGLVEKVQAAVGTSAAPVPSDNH

Usually Kd stands for a measure of binding affinity in units of concentration.

In the data set the target is Amyloid beta peptide (Homo sapiens) (UniProt P05067).

Take APOE3 (from UniProt P02649): the Kd was 20 nM.
